Values of other authors in US20050255047A1, “Smoke composition” (published 2005).

System: insects

Structure (SMILES): Cc1c(COC(=O)[C@@H]2[C@H](/C=C(\Cl)C(F)(F)F)C2(C)C)cccc1-c1ccccc1
- conventional usage dose for a smoke: 9 mg/m^3
